{"source": "patent US20130280279A1", "about": "“PHARMACEUTICAL COMPOSITION OF A COMPLEX OF AN ANTI-DIG ANTIBODY AND DIGOXIGENIN THAT IS CONJUGATED TO A PEPTIDE” (HOFFMANN-LA ROCHE INC., priority 2011, published 2013)", "test_system": "H322M cells", "test": "CytoTox-Glo cytotoxicity assay", "format": "cell-based, human", "details": "48 hours, read-out: IC50 unmodified peptide", "method": "To evaluate whether additions or alterations of the peptide Melittin, FALLv1 and FALLv2 by digoxygenin alters its biological activity, we performed in vitro assays. As these peptides are cytotoxic, their biological activity can easily be analyzed by monitoring the number of dead cells. To measure this number, the CytoTox-Glo assay (Promega Madison, WI) was used. Table 2 lists results of these CytoTox-Glo-assays that were performed to assess the biological activity of the Melittin, Fallv1 and Fallv2 peptides and their DIG-modified variants. For these assays, H322M cells were seeded at a density of 15.000 cells per well in 96 well plates. The cells were incubated for 24 hours at 37° C., 5% CO2 and 85% humidity in RPMI with 10% FCS, Na+ Pyrovate, L-Glutamine and NEAA mix. The peptide and it's DIG-modified variant were then added to the cells in the concentrations indicated. The cells were incubated for further 48 hours. After this period, the cells were treated with the CytoTox-Glo-assay reagent according to the manufacturers instructions. […] The luminescence of this assay therefore represents dead cells. The 96 well plates were then analyzed in a InfiniteF200 luminescence reader (Tecan Austria, Groding). […] To address this topic, we analyzed the in vitro activity of peptide-antibody complexes for the cytotoxic peptides FALLv1 and Fam5b. […]", "note": "Where “and” joins values, the source holds several entries; their conditions need not be identical. Identical values can stand only once."}
{"smiles": "CC[C@H](C)[C@H](NC(=O)CN)C(=O)NCC(=O)N[C@@H](C)C(=O)N[C@H](C(=O)N[C@@H](CC(C)C)C(=O)N[C@@H](CCCCN)C(=O)N[C@H](C(=O)N[C@@H](CC(C)C)C(=O)N[C@H](C(=O)N[C@H](C(=O)NCC(=O)N[C@@H](CC(C)C)C(=O)N1CCC[C@H]1C(=O)N[C@@H](C)C(=O)N[C@@H](CC(C)C)C(=O)N[C@H](C(=O)N[C@@H](CO)C(=O)N[C@@H](Cc1c[nH]c2ccccc12)C(=O)N[C@H](C(=O)N[C@@H](CCCCN)C(=O)N[C@@H](CCCNC(=N)N)C(=O)N[C@@H](CCCCN)C(=O)N[C@@H](CCCNC(=N)N)C(=O)N[C@@H](CCC(N)=O)C(=O)N[C@@H](CCC(N)=O)C(N)=O)[C@@H](C)CC)[C@@H](C)CC)[C@@H](C)O)[C@@H](C)O)C(C)C)C(C)C", "note": "[Melittin, reference compound]", "values": [{"measurement": "IC50", "value": "3.28 µM and 3.3 µM"}]}
